## Cyclic peptide permeability, from CycPeptMPDB

Collected by the curators of CycPeptMPDB (Li et al. 2023) from Furukawa et al. 2016, doi:10.1021/acs.jmedchem.6b01246.

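Conditions beyond the assay type are not listed; see the original paper. The list need not hold all peptides of the study. Entries at the database's floor value (log10 P of -10) are not listed.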

PAMPA measures passive passage through an artificial lipid membrane.
Permeability is in 10^-6 cm/s, converted from the database's log10 values; higher is more permeable.

| structure (SMILES) | PAMPA (10^-6 cm/s) |
|---|---|
| CCCC[C@@H]1NC(=O)[C@H](CC(C)C)N(C)C(=O)CN(CCOc2ccccc2)C(=O)[C@H](CC(C)C)NC(=O)CN(CCN2CCOCC2)C(=O)[C@H]2CCCN2C1=O | 2.5 |
| CCCC[C@@H]1NC(=O)[C@H](CC(C)C)N(C)C(=O)CN(CC2CCCCC2)C(=O)[C@H](CC(C)C)NC(=O)CN(Cc2cc(CC(C)C)on2)C(=O)[C@H]2CCCN2C1=O | 0.12 |
| CCCCCN1CC(=O)N(C)[C@@H](CC(C)C)C(=O)N[C@@H](CCCC)C(=O)N2CCC[C@@H]2C(=O)N(CCN2CCOCC2)CC(=O)N[C@@H](Cc2ccc3ccccc3c2)C1=O | 1.6 |
| CCCC[C@@H]1NC(=O)[C@H](CC(C)C)N(C)C(=O)CN(CC2CCOCC2)C(=O)[C@H](Cc2ccc3ccccc3c2)NC(=O)CN(Cc2ccc3c(c2)OCO3)C(=O)[C@H]2CCCN2C1=O | 0.069 |
| CCCC[C@@H]1NC(=O)[C@H](CC(C)C)N(C)C(=O)CN(CCOC)C(=O)[C@H](CC(C)C)NC(=O)CN(Cc2ccc(Cl)cc2)C(=O)[C@H]2CCCN2C1=O | 4.6 |
| CCCC[C@@H]1NC(=O)[C@H](CC(C)C)N(C)C(=O)CN(CCc2cccnc2)C(=O)[C@H](CC(C)C)NC(=O)CN(Cc2cc(CC(C)C)on2)C(=O)[C@H]2CCCN2C1=O | 6.9 |
| CCCC[C@@H]1NC(=O)[C@H](CC(C)C)N(C)C(=O)CN(CCCN2CCCC2=O)C(=O)[C@H](C)NC(=O)CN(Cc2ccc(Cl)cc2)C(=O)[C@H]2CCCN2C1=O | 0.36 |
| CCCC[C@@H]1NC(=O)[C@H](CC(C)C)N(C)C(=O)CN(CCCN2CCCC2=O)C(=O)[C@H](CC(C)C)NC(=O)CN(CC)C(=O)[C@H]2CCCN2C1=O | 0.095 |
| CCCC[C@@H]1NC(=O)[C@H](CC(C)C)N(C)C(=O)CN(CCCc2cnn(C)c2)C(=O)[C@H](Cc2ccccc2)NC(=O)CN(Cc2ccc3c(c2)OCO3)C(=O)[C@H]2CCCN2C1=O | 1.9 |
| CCCC[C@@H]1NC(=O)[C@H](CC(C)C)N(C)C(=O)CN(CC2CCCCC2)C(=O)[C@H](Cc2ccccc2)NC(=O)CN(CCCCc2ccccc2)C(=O)[C@H]2CCCN2C1=O | 0.003 |
| CCCC[C@@H]1NC(=O)[C@H](CC(C)C)N(C)C(=O)CN(CCCc2cnn(C)c2)C(=O)[C@H](Cc2ccccc2)NC(=O)CN(CCCCc2ccccc2)C(=O)[C@H]2CCCN2C1=O | 0.48 |
| CCCC[C@@H]1NC(=O)[C@H](CC(C)C)N(C)C(=O)CN(CCOC)C(=O)[C@H](Cc2ccc3ccccc3c2)NC(=O)CN(CC)C(=O)[C@H]2CCCN2C1=O | 6.8 |
| CCCC[C@@H]1NC(=O)[C@H](CC(C)C)N(C)C(=O)CN(CCOC)C(=O)[C@H](Cc2ccc3ccccc3c2)NC(=O)CN(Cc2ccccc2Cn2cccn2)C(=O)[C@H]2CCCN2C1=O | 0.68 |
| CCCC[C@@H]1NC(=O)[C@H](CC(C)C)N(C)C(=O)CN(Cc2ccccc2)C(=O)[C@H](Cc2ccc3ccccc3c2)NC(=O)CN(CCCOC(C)C)C(=O)[C@H]2CCCN2C1=O | 0.28 |
| CCCC[C@@H]1NC(=O)[C@H](CC(C)C)N(C)C(=O)CN(CC2CCOCC2)C(=O)[C@H](CC(C)C)NC(=O)CN(CCC)C(=O)[C@H]2CCCN2C1=O | 4.6 |
| CCCC[C@@H]1NC(=O)[C@H](CC(C)C)N(C)C(=O)CN(CCCc2cnn(C)c2)C(=O)[C@H](Cc2ccc3ccccc3c2)NC(=O)CN(CCCCc2ccccc2)C(=O)[C@H]2CCCN2C1=O | 0.01 |
| CCCC[C@@H]1NC(=O)[C@H](CC(C)C)N(C)C(=O)CN(CCCc2ccccc2)C(=O)[C@H](Cc2ccc3ccccc3c2)NC(=O)CN(CC)C(=O)[C@H]2CCCN2C1=O | 0.083 |

The last 2 entries again:

structure (SMILES)	PAMPA (10^-6 cm/s)
CCCC[C@@H]1NC(=O)[C@H](CC(C)C)N(C)C(=O)CN(CCCc2cnn(C)c2)C(=O)[C@H](Cc2ccc3ccccc3c2)NC(=O)CN(CCCCc2ccccc2)C(=O)[C@H]2CCCN2C1=O	0.01
CCCC[C@@H]1NC(=O)[C@H](CC(C)C)N(C)C(=O)CN(CCCc2ccccc2)C(=O)[C@H](Cc2ccc3ccccc3c2)NC(=O)CN(CC)C(=O)[C@H]2CCCN2C1=O	0.083